# Experimental data taken from ChEMBL document CHEMBL3433997, “St. Jude Leishmania screening dataset” (2016).
# Shown are results outside the selection of strong results, which stands elsewhere.
# Tests used:
# Type in all cases: functional
# [1] = molecular target: Solute carrier family 2, facilitated glucose transporter member 1 (Homo sapiens) (UniProt P11166); experiment: ST_JUDE_LEISH: Cytotoxicity at 2uM final concentration against transgenic Leishmania Mexicana promastigotes LmGLUT1 that are glucose transport deficient and complemented with the human glucose transporter GLUT1. Activity is measured by DNA content using SYBR green in vitro
# [2] = molecular target: Hexose transporter 1 (Plasmodium falciparum) (UniProt O97467); experiment: ST_JUDE_LEISH: Cytotoxicity at 2uM final concentration against transgenic Leishmania Mexicana promastigotes LmPfHT that are glucose transport deficient and complemented with the Plasmodium falciparum hexose transporter. Activity is measured by DNA content using SYBR green in vitro
# [3] = molecular target: Glucose transporter (Leishmania mexicana) (UniProt O61059); experiment: ST_JUDE_LEISH: Cytotoxicity at 2uM final concentration against transgenic Leishmania Mexicana promastigotes LmGT2 that are glucose transport deficient and complemented with the L. Mexicana glucose transporter 2. Activity is measured by DNA content using SYBR green in vitro
Compound,inhibition [1] [%],inhibition [2] [%],inhibition [3] [%]
COc1ccc(Cc2cnc3nc(N)nc(N)c3c2C)cc1OC,26.4,41.2,33
N=C(N)c1ccc(Oc2ccc(C(=N)N)cc2)cc1,3.97,5.31,5.26
CCCCCc1cnc2nc(N)nc(N)c2c1,3.59,3.64,2.64
